US4454158A, “Allyl amine MAO inhibitors” (Merrell Toraude et Compagnie, priority 1981, dated 1984)

System: MAO
Assay: Inhibition of MAO - Ex vivo, rat (14C p-tyramine substrate)
Format: in vivo
Settings: 1.0 mg/kg po, 2 hr
Experimental: The ability of a compound of Formula I or II to inhibit MAO can be determined ex vivo by the following procedure:
The test compound is administered intraperitoneally (ip), intravenously (iv), or orally (po) to rats or mice and the animals are killed at various times after treatment. […] MAO activity is determined in the homogenates using ^14 C p-tyramine, as the substrate. […] Selectivity can be determined by repeating the above-described test using either ^14 C 5-hydroxytryptamine (for MAO-A) or ^14 C phenethylamine (for MAO-B) as the substrate for determining the % inhibition

With C#CCN(C)[C@H](C)Cc1ccccc1 [L-deprenyl, reference compound] the “% Inhibition of MAO - Liver” value was 91%.
